Test system: Human breast cancer cell line BT-474
Test: Evaluation of combination effects in vitro (WST-1 proliferation, Combination Index by Pegram method)
Assay type: cell-based
Protocol: The effects of the combined use were evaluated by calculating a Combination Index (CI) following a method of Pegram et al. (M. Pegram et al., Oncogene, 18, 2241-2251 (1999)). Human breast cancer cell line BT-474 (a cell line in which HER2 is highly expressed) was obtained from ATCC (American Type Culture Collection). In a medium comprising equal amount of D-MEM (Dulbecco's Modified Eagle Medium) medium and F-12 (Nutrient Mixture F-12) medium which further contains 2.5 mM L-glutamine, 10% bovine fetal serum (FCS) and 2.5 μg/ml amphotericin B, human breast cancer cell line BT-474 was subcultured. The culture was carried out in an incubator with 5% CO2 at 37° C. This medium was also used in the following experiments. HerceptinTM was dissolved in a dissolution solution attached thereto to prepare a 21 mg/ml stock solution. Thereafter, the solution was used after 2 fold serial dilutions with the medium. […] Doxorubicin hydrochloride was obtained from Kyowa Hakko Kogyo Co., Ltd. A 2 mg/ml solution was prepared by adding 5 ml of sterile water to a 10 mg vial, and the solution was used. Human breast cancer cell line BT-474 on subculture were subjected to a trypsin treatment, suspended in the medium, and seeded on a 96-well plate. The seeding density was set to be 1×10^4 cells/0.1 ml/well. After seeding, cells were cultured overnight in an incubator with 5% CO2 at 37° C. (Day 0). […] The experiments were conducted with n=3 for the agent-treated group, and with n=6 for the non-treated (control) group. Until Day 4, culture was conducted in an incubator with 5% CO2 at 37° C. […] Thereafter, culture was conducted in an incubator with 5% CO2 at 37° C. for 2-4 hours. Absorbance of the culture was then measured with MICROPLATE READER Model 3550-UV (BioRad), and living cell number was measured. […] absorbance: […] The value of X intercept represents a common logarithm of an IC50 value (concentration of the agent required for 50% inhibition of the cell proliferation). […] CI and inhibition rate of proliferation fa were calculated as described above.

## Herceptin: humanized anti-HER2 antibody Trastuzumab (Herceptin™, Genentech, Ltd.)
Combination with amrubicin hydrochloride, dosage ratio 40:1, fa 0.9, BT-474
  D2 (concentration of Herceptin in combination required for fa): 0.032 µg/mL
Combination with amrubicinol hydrochloride, dosage ratio 2:1, fa 0.9, BT-474
  D2 (concentration of Herceptin in combination required for fa): 0.119 µg/mL
Combination with amrubicinol hydrochloride, dosage ratio 4:1, fa 0.9, BT-474
  D2 (concentration of Herceptin in combination required for fa): 0.053 µg/mL
Combination with amrubicinol hydrochloride, dosage ratio 8:1, fa 0.9, BT-474
  D2 (concentration of Herceptin in combination required for fa): 0.035 µg/mL
Combination with doxorubicin hydrochloride, dosage ratio 2:1, fa 0.9, BT-474
  D2 (concentration of Herceptin in combination required for fa): 0.187 µg/mL
Single agent, fa 0.9, BT-474
  Df2 (concentration of Herceptin as single agent required for fa): 6.312 µg/mL
